Experimental findings from ChEMBL document CHEMBL1131221, “2'-C-Methyl analogues of selective adenosine receptor agonists: synthesis and binding studies” (J Med Chem, 1998) are described below.

Chains of the proteins cited; added tags and fusions are not shown.
UniProt P28647, whole entry: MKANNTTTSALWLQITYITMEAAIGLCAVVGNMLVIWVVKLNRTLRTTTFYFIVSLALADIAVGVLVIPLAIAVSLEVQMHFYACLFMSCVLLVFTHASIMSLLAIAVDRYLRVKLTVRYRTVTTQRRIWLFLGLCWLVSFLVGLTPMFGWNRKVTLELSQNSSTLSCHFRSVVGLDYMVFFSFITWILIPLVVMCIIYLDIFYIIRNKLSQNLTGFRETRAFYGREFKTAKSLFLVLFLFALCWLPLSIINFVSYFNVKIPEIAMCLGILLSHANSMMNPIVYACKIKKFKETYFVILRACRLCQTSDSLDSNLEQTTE

The assay addresses Adenosine receptor A3 (Rattus norvegicus, UniProt P28647). In words: Inhibitory activity against Adenosine A3 receptor by inhibiting specific [3H](R)-PIA binding to rat testis membranes. The arrangement: species or system Membrane.

A word on the Ki: it is a measure of affinity in units of concentration, obtained from inhibition or displacement. Lower therefore signals tighter binding. For the molecule `OC[C@H]1O[C@@H](n2cnc3c(NC4CCCC4)ncnc32)[C@H](O)[C@@H]1O` [N6-CYCLOPENTYLADENOSINE], the affinity corresponds to a Ki of 0.026 µM.
